Results on two compounds are retold here after patent US8163952B2, “RAR receptor agonist ligands and use thereof in human medicine and cosmetics” (Galderma Research & Development, priority 2007, dated 2012).

Amino acid sequences for entries named in this document (tags omitted). Residues count along the entry.
UniProt P10826, 154-455 limits assumed: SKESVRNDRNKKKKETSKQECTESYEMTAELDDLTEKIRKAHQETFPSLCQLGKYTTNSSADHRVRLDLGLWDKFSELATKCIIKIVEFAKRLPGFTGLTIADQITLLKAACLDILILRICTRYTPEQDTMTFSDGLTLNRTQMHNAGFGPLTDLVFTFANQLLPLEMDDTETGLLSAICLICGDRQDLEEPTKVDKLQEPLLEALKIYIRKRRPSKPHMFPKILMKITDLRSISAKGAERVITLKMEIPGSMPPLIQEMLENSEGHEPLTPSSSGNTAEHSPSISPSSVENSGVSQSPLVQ
UniProt P13631, 185-454 limits assumed: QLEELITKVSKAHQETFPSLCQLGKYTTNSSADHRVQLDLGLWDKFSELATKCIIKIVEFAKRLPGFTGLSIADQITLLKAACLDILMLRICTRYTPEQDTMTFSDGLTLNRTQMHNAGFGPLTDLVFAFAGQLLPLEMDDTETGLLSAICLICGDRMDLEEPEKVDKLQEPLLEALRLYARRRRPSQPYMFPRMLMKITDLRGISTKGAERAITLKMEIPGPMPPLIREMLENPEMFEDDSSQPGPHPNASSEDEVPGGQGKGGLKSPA
UniProt P10276, 183-462 limits assumed: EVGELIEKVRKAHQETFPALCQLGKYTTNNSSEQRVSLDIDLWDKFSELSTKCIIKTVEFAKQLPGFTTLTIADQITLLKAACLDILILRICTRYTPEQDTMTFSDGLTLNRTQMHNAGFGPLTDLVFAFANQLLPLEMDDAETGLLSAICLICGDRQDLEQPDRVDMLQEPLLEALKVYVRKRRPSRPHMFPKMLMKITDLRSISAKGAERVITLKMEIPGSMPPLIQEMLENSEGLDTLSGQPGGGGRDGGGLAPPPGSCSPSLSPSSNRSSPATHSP

Assay in all cases: Transactivation assay (luciferase reporter, crossed curves vs reference agonist, Schild regression)
Holding throughout (format): cell-based

For assay [1], the target named is RARβ (Homo sapiens, UniProt P10826). As to conditions: HeLa stable transfectants, ERE-βGlob-Luc-SV-Neo reporter and RARβ ER-DBD-puro; 18 hours incubation; apparent Kd; read-out: RARβ Kdapp. The method, then:
(§1) The compounds according to the invention have retinoic acid receptor (RAR) agonist properties. This activity on RARα, β and γ receptors is measured in a transactivation test and quantified by means of the dissociation constant Kdapp (apparent).
(§2) The activation of receptors with an agonist (activator) in HeLa cells leads to the expression of a reporter gene, luciferase, which, in the presence of a substrate, generates light. The activation of the receptors can thus be measured by quantifying the luminescence produced after incubation of the cells in the presence of a reference agonist. Inhibitory products will displace the agonist from its site, thus preventing activation of the receptor. The activity is measured by quantifying the decrease in light produced. This measurement makes it possible to determine the inhibitory activity of the compounds according to the invention.
(§3) In this study, a constant is determined which represents the affinity of the molecules for the receptor. Since this value can fluctuate depending on the basal activity and the expression of the receptor, it is referred to as the Kd apparent (KdApp).
(§4) To determine this constant, “crossed curves” of the test product against a reference agonist, 4-[2-(5,5,8,8-tetramethyl-5,6,7,8-tetrahydronaphthalen-2-yl)propenyl]benzoic acid, are realized in 96-well plates. The test product is used at 10 concentrations and the reference agonist at 7 concentrations. In each well, the cells are in contact with a concentration of the test product and with a concentration of the reference agonist, 4-[2-(5,5,8,8-tetramethyl-5,6,7,8-tetrahydronaphthalen-2-yl)]propenyl]benzoic acid. […]
(§5) These crossed curves make it possible to determine the AC50 values (concentration at which 50% activation is observed) for the reference ligand at various concentrations of test product. These AC50 values are used to calculate the Schild regression by plotting a straight line corresponding to the Schild equation (“Quantitation in receptor pharmacology” Tervy P. Kenakin, Receptors and Channels, 2001, 7, 371-385). […]
(§6) The various dilutions of the test products, of the reference ligand (4-[2-(5,5,5,8-tetramethyl-5,6,7,8-tetrahydronaphthalen-2-yl)propenyl]benzoic acid), of the 100% control (100 nM 4-[2-(5,5,8,8-tetramethyl-5,6,7,8-tetrahydronaphthalen-2-yl)propenyl]benzoic acid) and of the 0% control (500 nM 4-{(E)-3-[4-(4-tert-butylphenyl)-5,5,8,8-tetramethyl-5,6,7,8-tetrahydronaphthalen-2-yl]-3-oxopropenyl}benzoic acid) are added in a proportion of 5 μl per well. […] After 5 minutes, the plates are read using a luminescence reader.

Assay [2] concerns the target RARγ (Homo sapiens, UniProt P13631). As to conditions: HeLa stable transfectants, ERE-βGlob-Luc-SV-Neo reporter and RARγ ER-DBD-puro; 18 hours incubation; apparent Kd; read-out: RARγ Kdapp. How it is done:
as §1, §2, §3, §4, §5, §6

For assay [3], the target named is RARα (Homo sapiens, UniProt P10276). As to conditions: HeLa stable transfectants, ERE-βGlob-Luc-SV-Neo reporter and RARα ER-DBD-puro; 18 hours incubation; apparent Kd; read-out: RARα Kdapp. The method, then:
as §1, §2, §3, §4, §5, §6

For “4-{[tert-butyl(ethylisobutylamino)phenyl]hydroxyprop-1-ynyl}benzoic acid [Compound of example 2]”, the Kd in assay [1] came out at 600 nM; in assay [2] it was 120 nM; in assay [3], 3000 nM.

As to `CC(C)(C)c1cc(C(O)C#Cc2ccc(C(=O)O)cc2)ccc1N1CCCCC1` (stereo not shown) [Compound of example 5, 4-[3-(3-tert-butyl-4-piperidin-1-ylphenyl)-3-hydroxyprop-1-ynyl]benzoic acid], the Kd in assay [2] is 120 nM.
